This is a selection; strong and weak results do not stand in their true shares. Some tests of the compounds listed are not included; inactive here does not mean inactive elsewhere. Active and inactive are the calls of the source. No rule for the calls is given here.
Each compound was assayed against Polyadenylate-binding protein 1 (Homo sapiens) (UniProt P11940) (assay: PABP poly(A) RNA binding inhibitors, primary screen, biochemical, fluorescence polarization, uHTS (AID 2014)). Settings: at 35 µM, hits give high values.

Protein sequences, listed by entry. Tags and fused reporters are not part of them.
UniProt P11940, whole entry: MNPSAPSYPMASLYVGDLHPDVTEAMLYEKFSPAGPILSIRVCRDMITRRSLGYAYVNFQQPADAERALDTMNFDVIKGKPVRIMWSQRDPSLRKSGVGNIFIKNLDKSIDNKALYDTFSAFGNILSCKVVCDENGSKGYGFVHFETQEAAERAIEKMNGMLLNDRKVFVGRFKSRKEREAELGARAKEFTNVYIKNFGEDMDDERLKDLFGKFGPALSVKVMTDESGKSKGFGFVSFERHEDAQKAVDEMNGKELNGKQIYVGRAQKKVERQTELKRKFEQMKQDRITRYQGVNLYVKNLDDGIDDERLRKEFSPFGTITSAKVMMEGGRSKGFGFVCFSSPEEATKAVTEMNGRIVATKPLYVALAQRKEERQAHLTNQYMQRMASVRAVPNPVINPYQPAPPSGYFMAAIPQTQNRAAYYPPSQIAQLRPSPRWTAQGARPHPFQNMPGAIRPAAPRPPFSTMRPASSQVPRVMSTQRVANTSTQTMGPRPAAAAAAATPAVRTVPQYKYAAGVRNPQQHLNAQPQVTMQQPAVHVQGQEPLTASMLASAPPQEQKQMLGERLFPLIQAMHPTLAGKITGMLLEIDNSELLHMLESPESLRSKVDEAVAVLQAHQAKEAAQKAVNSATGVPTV

Row | SMILES | inhibition
1 | C=CCN1CCN(CCOC(=O)C(O)(c2ccccc2)c2ccccc2)CC1 | inactive: 14%
2 | O=C(NCC1(N2CCCCC2)CCCCC1)c1cc(F)c(F)cc1Cl | inactive: 5.8%
3 | COc1ccc(C(=O)NCC2(N(C)C)CCCCC2)cc1 | inactive: 4.2%
4 | Cc1cc(C(=O)NCC2(N3CCCCC3)CCCCC2)ccc1[N+](=O)[O-] | inactive: -2.9%
5 | CCN1CCCC(OC(=O)C2(O)c3ccccc3C=Cc3ccccc32)C1 (centres undefined) | inactive: 27.2%
6 | O=C(NCC1(N2CCCCC2)CCCCC1)c1cccc(Br)c1 | inactive: -0.4%
7 | Cc1ccccc1C(=O)NCC1(N2CCCCC2)CCCCC1 | inactive: -8.9%
8 | CN(C)C1CCCC1OC(=O)C(O)(c1ccccc1)c1ccccc1 (centres undefined) | inactive: -14.8%
9 | CN(C)c1ccc(C(=O)NCC2(N(C)C)CCCCC2)cc1 | inactive: -21.4%
10 | CCN(CC)CC(C)C(C)OC(=O)C(O)(c1ccccc1)c1ccccc1 (centres undefined) | inactive: -1.4%
11 | COc1cc(SC)ccc1C(=O)NCC1(N(C)C)CCCCC1 | inactive: 0.4%
12 | CC(C)N1C(=O)CC2(CCN(CCOC(=O)C(O)(c3ccccc3)c3ccccc3)CC2)C1=O | inactive: -0.5%
13 | Cc1ccc(C(=O)NCC2(N3CCCCC3)CCCCC2)cc1 | inactive: 3.5%
14 | O=C(NCC1(N2CCCCC2)CCCCC1)c1cc([N+](=O)[O-])ccc1Cl | inactive: -9.3%
15 | CN1[C@@H]2CC[C@H]1CC(OC(=O)C(O)(c1ccccc1)c1ccccc1)C2 (some centres undefined) | inactive: 2.5%
16 | COc1ccc(Br)c(C(=O)NCC2(N3CCCCC3)CCCCC2)c1 | inactive: -3.9%
17 | CC(C)Oc1ccc(C(=O)NCC2(N(C)C)CCCCC2)cc1 | inactive: 3.8%
18 | CN(C)c1cccc(C(=O)NCC2(N(C)C)CCCCC2)c1 | inactive: 7.5%
19 | O=C(OC1CN2CCC1CC2)C(CO)(c1ccccc1)c1ccccc1 (centres undefined) | inactive: 1.5%
20 | COc1cccc(C(=O)NCC2(N3CCCCC3)CCCCC2)c1 | inactive: -8.8%
21 | COc1ccc(Cl)cc1C(=O)NCC1(N(C)C)CCCCC1 | inactive: 0.8%
22 | O=C(NCC1(N2CCCCC2)CCCCC1)c1cccc(Cl)c1 | inactive: 9.2%
23 | CN(C)C1(CNC(=O)c2ccc(Br)cc2)CCCCC1 | inactive: 2.8%
24 | COc1cc(C(=O)NCC2(N(C)C)CCCCC2)c([N+](=O)[O-])cc1OC | inactive: 8.5%
